The values that follow are results of earlier work, collected in patent publication US20130029884A1, “BIOCIDE FORMULATIONS” (ENVIROSYSTEMS, INC., priority 2011, published 2013).

For the series the following is noted: at 20% concentrations; cited from earlier work.

Consider “tetrakis hydroxylmethyl phosphonium sulfate [THPS]”, for which the toxic category was 1.
